The list shows a part of the results, in another mix than the full data. The source made the active and inactive calls. Cut-off read from the data, not from the text of the source: active = z-score above about 3 (passing the limit was not always enough); inactive = the rest.

Amino acid sequences for entries named in this document (tags omitted).
UniProt Q9UPY3, whole entry, looked up: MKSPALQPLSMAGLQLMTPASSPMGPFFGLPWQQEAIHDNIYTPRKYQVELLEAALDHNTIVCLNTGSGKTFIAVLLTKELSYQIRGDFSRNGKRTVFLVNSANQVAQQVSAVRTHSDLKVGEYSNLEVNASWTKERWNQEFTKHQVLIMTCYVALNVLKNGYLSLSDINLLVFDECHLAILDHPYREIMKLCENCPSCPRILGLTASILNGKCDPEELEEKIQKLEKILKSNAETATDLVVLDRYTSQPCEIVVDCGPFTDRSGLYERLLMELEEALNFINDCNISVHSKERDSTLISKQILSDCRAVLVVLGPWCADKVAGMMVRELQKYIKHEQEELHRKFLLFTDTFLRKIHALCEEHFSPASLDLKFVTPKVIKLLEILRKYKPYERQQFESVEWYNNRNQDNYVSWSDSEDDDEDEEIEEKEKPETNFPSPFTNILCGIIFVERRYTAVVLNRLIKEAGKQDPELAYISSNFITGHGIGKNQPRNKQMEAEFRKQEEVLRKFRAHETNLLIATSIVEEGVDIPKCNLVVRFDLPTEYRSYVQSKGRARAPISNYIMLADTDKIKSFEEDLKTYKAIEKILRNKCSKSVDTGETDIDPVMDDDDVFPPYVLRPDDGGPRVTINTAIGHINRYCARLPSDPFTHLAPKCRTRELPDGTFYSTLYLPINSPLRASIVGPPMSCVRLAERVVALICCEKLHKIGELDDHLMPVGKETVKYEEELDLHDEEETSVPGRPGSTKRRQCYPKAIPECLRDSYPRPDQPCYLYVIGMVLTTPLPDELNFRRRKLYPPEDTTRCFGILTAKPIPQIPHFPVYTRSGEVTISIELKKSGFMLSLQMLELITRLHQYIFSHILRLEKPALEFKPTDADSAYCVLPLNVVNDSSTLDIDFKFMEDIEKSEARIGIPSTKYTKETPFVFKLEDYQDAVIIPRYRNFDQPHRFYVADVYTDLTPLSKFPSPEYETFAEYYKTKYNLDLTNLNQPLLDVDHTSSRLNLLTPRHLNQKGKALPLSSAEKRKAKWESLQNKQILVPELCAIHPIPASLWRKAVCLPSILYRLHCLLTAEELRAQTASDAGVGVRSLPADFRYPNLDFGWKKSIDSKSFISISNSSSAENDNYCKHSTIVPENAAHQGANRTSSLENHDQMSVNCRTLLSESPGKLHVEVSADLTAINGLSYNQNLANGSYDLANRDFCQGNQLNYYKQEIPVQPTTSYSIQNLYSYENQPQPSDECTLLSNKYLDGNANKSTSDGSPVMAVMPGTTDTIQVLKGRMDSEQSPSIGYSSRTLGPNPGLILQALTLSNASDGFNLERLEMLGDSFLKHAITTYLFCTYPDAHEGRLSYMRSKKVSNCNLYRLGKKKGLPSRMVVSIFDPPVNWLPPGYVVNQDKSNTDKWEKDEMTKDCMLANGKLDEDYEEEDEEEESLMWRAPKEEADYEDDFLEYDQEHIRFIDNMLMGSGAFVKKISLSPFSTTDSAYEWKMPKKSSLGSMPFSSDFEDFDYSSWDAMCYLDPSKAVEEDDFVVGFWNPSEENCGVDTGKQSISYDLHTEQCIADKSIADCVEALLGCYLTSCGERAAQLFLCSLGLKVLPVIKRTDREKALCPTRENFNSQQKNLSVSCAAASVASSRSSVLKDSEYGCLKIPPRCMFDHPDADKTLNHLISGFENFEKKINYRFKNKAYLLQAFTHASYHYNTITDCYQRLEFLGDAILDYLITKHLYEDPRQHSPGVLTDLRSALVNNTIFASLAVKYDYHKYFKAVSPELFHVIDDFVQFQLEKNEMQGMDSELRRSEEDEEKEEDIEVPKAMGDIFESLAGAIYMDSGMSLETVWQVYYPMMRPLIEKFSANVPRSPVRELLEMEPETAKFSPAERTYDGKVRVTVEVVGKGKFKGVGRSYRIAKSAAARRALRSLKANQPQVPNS

Consider one molecule from PubChem BioAssay AID1347074 (Center for Chemical Genomics, University of Michigan, 2019).

The test addresses Endoribonuclease Dicer (Homo sapiens) (UniProt Q9UPY3). Briefly: Dicer cleavage of pre-miR-21 blockers – biochemical, cat-ELCCA, chemiluminescence, primary screen (AID 1347074).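 Note: plate controls were vehicle for no effect and no enzyme for full effect; higher signal means more uncleaved substrate so more Dicer inhibition.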 The note with it: cat-ELCCA pre-miR-21 Dicer processing, at 25 µM, hits give high values.
On to `Cc1ccccc1NC1CC(C)(C)NC(C)(C)C1`, for which the z-score was inactive: -0.68.
